The record followed here is patent publication US20060247311A1, “Methods for treating lower urinary tract disorders using alpha2delta subunit calcium channel modulators with smooth muscle modulators” (priority 2003, published 2006).

The conditions of this data set: female, rat, in vivo, iv, 3 mg/kg.

In the case of `CCN(CC)CC#CCOC(=O)C(O)(c1ccccc1)C1CCCCC1` (stereo not shown) [oxybutynin, 4-diethylaminio-2-butynyl phenylcyclohexyglycolate], the “AUC0-∞” value is 20477 ng·min/mL.
